According to PubChem BioAssay (Tox21):
This is a selection; strong and weak results do not stand in their true shares. Records with an inconclusive call do not appear. Activity calls are given as the source filed them. Unless noted, the call rests on the fitted dose curve.

Protein sequences, listed by entry. Tags and fused reporters are not part of them. Lines headed by an entry give the natural chain unless they say otherwise; changes in a name come on top.
UniProt P28223, whole entry, looked up: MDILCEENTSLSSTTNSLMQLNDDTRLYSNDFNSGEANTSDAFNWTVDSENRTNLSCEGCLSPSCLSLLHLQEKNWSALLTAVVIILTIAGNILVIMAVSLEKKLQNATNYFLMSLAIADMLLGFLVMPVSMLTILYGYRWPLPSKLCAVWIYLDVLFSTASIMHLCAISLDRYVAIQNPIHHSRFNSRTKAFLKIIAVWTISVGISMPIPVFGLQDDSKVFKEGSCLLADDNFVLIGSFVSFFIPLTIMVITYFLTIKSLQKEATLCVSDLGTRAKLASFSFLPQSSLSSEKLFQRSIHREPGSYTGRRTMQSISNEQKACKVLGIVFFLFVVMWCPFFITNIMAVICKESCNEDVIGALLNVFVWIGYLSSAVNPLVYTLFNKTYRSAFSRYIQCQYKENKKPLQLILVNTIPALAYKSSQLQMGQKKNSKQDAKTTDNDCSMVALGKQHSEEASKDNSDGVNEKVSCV
UniProt P11229: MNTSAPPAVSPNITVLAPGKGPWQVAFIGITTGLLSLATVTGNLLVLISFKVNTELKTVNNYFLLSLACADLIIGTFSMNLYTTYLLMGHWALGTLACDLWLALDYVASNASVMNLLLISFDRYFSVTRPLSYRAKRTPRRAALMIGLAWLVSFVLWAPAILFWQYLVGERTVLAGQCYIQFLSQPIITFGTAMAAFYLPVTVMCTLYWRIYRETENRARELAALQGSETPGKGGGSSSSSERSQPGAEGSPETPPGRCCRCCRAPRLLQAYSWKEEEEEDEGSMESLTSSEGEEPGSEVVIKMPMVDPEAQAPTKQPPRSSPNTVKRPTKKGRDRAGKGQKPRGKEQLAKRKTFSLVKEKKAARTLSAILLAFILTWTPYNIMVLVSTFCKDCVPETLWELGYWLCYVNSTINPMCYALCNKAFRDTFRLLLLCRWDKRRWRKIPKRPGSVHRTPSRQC
UniProt P14416, whole entry, looked up: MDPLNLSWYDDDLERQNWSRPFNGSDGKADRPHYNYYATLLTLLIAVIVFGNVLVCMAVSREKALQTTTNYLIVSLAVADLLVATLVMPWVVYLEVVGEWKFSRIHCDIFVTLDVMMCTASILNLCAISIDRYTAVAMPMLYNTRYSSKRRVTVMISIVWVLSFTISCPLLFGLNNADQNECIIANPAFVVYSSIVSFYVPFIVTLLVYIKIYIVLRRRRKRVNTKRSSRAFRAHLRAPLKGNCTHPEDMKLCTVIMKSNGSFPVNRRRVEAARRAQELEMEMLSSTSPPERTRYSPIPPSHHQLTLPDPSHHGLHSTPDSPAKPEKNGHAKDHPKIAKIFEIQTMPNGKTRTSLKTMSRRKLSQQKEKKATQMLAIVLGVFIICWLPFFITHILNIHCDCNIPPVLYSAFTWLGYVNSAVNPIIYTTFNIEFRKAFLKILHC

Tests used:
[1] = target: 5-hydroxytryptamine receptor 2A (Homo sapiens) (UniProt P28223); assay: 5-hydroxytryptamine receptor 2A (HTR2A) small molecule antagonists, cell-based qHTS assay (AID 1963586); settings: HTR2A-CHO cells, DOI-induced calcium flux, fluorescence; further: nearly all actives have a fitted effect of over 45% in size
Outline: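 Antagonist-mode intracellular calcium assay: DOI (4 nM) added after 5 min compound pre-incubation at room temperature to dye-loaded HTR2A-CHO cells. Fluorescence followed for 3 min, sampled every second.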

[2] = target: Muscarinic acetylcholine receptor M1 (Homo sapiens) (UniProt P11229); assay: Cholinergic receptor muscarinic 1 (CHRM1) small molecule antagonists, cell-based qHTS assay (AID 1963588); settings: CHRM1-CHO antagonist mode, calcium flux fluorescence; further: nearly all actives have a fitted effect of over 40% in size
Outline: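 CHRM1-CHO calcium-flux assay, antagonist mode. Cells were seeded 18 h, dye-loaded 1 h at 37 C and given compound for 5 min at RT, then acetylcholine was added at 50nM. FDSS fluorescence was read 3 min; 15 concentrations, three runs.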

[3] = target: D(2) dopamine receptor (Homo sapiens) (UniProt P14416); assay: Dopamine D2 receptor (DRD2) small molecule antagonists, cell-based qHTS assay (AID 1963595; active means well fitted inhibition curve with a large enough effect in the signal ratio in the repeat runs, with a control signal flat; the % refers to the signal ratio); settings: HEK293-DRD2 cAMP HTRF antagonist mode
Outline: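 In this cell-based antagonist screen, compounds act for 10 min at room temperature before a 30 min challenge with 12 nM quinpirole and 200 nM NKH477. cAMP is quantified by HTRF competition in DRD2-HEK293 cells containing 0.1 mM Ro20-1724.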
Potency means the concentration at half of the fitted maximal effect.

CN1CCC(=C2c3ccccc3CCc3cccnc32)CC1
Potency [1]: active: 8.18 µM

CN(CCCN1c2ccccc2CCc2ccccc21)CC(=O)c1ccc(Cl)cc1
Potency [2]: active: 3.26 µM

CCN1CCC[C@H]1CNC(=O)c1c(O)c(Cl)cc(Cl)c1OC
Potency [3]: active: 0.335 µM
